The experiment concerns the target Recombinant heterodimeric HCV NS3/NS4A protease (strain 1a) (Hepatitis C virus genotype 1a, UniProt P27958). Briefly: Spectrophotometric assay for HCV NS3/NS4a serine protease inhibitory activity (chromogenic ester substrates). Type of experiment: biochemical.

By UniProt entry, the sequences of proteins in these tests, tags left out. Residues count along the entry.
UniProt P27958, 1027-1657: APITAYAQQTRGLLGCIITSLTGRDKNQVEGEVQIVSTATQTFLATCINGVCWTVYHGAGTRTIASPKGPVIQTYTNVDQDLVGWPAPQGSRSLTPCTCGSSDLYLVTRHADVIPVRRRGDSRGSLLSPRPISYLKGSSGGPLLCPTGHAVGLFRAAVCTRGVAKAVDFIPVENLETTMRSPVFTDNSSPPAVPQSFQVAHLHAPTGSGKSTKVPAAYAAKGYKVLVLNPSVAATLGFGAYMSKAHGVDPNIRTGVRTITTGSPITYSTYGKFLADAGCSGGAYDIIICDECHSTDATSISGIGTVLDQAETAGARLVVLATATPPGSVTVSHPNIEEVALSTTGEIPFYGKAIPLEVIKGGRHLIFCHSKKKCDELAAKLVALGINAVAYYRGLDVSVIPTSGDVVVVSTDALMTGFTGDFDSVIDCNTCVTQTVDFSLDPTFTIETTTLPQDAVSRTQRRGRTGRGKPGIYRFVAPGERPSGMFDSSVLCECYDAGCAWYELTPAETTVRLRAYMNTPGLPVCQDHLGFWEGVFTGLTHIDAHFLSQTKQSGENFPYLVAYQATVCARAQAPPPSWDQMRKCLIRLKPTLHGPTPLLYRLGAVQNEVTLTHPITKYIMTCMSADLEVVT
UniProt P27958, 1658-1711: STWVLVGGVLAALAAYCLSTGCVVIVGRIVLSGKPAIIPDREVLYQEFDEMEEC

By Ki is commonly meant the equilibrium dissociation constant of an inhibitor or competing ligand from its target.

`C=CCNC(=O)C(=O)C(CCCC)NC(=O)[C@@H]1[C@@H]2[C@H](CN1C(=O)[C@@H](NC(=O)[C@@H](NC(=O)c1cnccn1)C1(C)CCCCC1)C1(C)CCCCC1)C2(C)C` (some centres unmarked) [Entry 23]: the Ki (Table 3) was 0.022 µM.

For the molecule `C=CCNC(=O)C(=O)C(CCC)NC(=O)[C@@H]1[C@@H]2[C@H](CN1C(=O)[C@@H](NC(=O)[C@@H](NC(=O)c1cnccn1)C1(C)CCCCC1)C1(C)CCCCC1)C2(C)C` (some centres unmarked) [Entry 24], where the note is “Table 3”, the Ki was found to be 0.023 µM.

On to `C=CCNC(=O)C(=O)C(CCCC)NC(=O)[C@@H]1[C@@H]2[C@H](CN1C(=O)[C@@H](NC(=O)[C@@H](NS(=O)(=O)c1cccs1)C1CCCCC1)C(C)(C)C)C2(C)C` (some centres unmarked) [Entry 24], for which the Ki (Table 2, range classes) was 0.1 to 1 µM.

Take `C=CCNC(=O)C(=O)C(CCCC)NC(=O)[C@@H]1[C@@H]2[C@H](CN1C(=O)[C@@H](NC(=O)[C@@H](NS(=O)(=O)c1ccccc1)C1CCCCC1)C(C)(C)C)C2(C)C` (some centres unmarked) [Entry 25]: the Ki (Table 2, range classes) lay in the range of 0.1 to 1 µM.

As to `CC(C)(C)[C@H](NC(=O)[C@@H](NS(=O)(=O)c1ccccc1)C1CCCCC1)C(=O)N1C[C@H]2[C@@H]([C@H]1C(=O)NC(CC1CC1)C(=O)C(N)=O)C2(C)C` (some centres unmarked) [Entry 26], the inhibitory constant (Ki) (Table 2, range classes) was ≤ 0.1 µM.

Regarding `C=CCNC(=O)C(=O)C(CCCC)NC(=O)[C@@H]1[C@@H]2[C@H](CN1C(=O)[C@@H](NC(=O)[C@@H](NC(=O)c1cnccn1)C1CCCCC1)C1CCCCC1)C2(C)C` (some centres unmarked) [Entry 27], the inhibition constant Ki (Table 2, range classes) was ≤ 0.1 µM.

Take `CCC[C@H](NC(=O)[C@@H]1[C@@H]2[C@H](CN1C(=O)[C@@H](NC(=O)[C@@H](NC(=O)c1cnccn1)C1CCCCC1)C(C)(C)C)C2(C)C)C(=O)C(=O)NC1CC1` [Entry 28]: the inhibition constant (Ki) (Table 2, range classes) was ≤ 0.1 µM.

Regarding `C#CCCC(NC(=O)[C@@H]1[C@@H]2[C@H](CN1C(=O)[C@@H](NC(=O)[C@@H](NC(=O)c1cnccn1)C1CCCCC1)C(C)(C)C)C2(C)C)C(=O)C(=O)NCC=C` (some centres unmarked) [Entry 29], the inhibitory constant (Ki) (Table 2, range classes) was ≤ 0.1 µM.

With `C=CCNC(=O)C(=O)C(CCCC)NC(=O)[C@@H]1[C@@H]2[C@H](CN1C(=O)[C@@H](NC(=O)[C@@H](NC(=O)c1cnccn1)C1CCCCC1)C(C)(C)C)C2(C)C` (some centres unmarked) [Entry 30], for the setting “Table 2, range classes”, the Ki is ≤ 0.1 µM.

Regarding `C=CCNC(=O)C(=O)C(CC1CCC1)NC(=O)[C@@H]1[C@@H]2[C@H](CN1C(=O)[C@@H](NC(=O)[C@@H](NC(=O)c1cnccn1)C1CCCCC1)C(C)(C)C)C2(C)C` (some centres unmarked) [Entry 31], for the setting “Table 2, range classes”, the Ki is ≤ 0.1 µM.

`C=CCNC(=O)C(=O)C(CCC)NC(=O)[C@@H]1[C@@H]2[C@H](CN1C(=O)[C@@H](NC(=O)[C@@H](NC(=O)c1cnccn1)C1CCCCC1)C(C)(C)C)C2(C)C` (some centres unmarked) [Entry 32]: under “Table 2, range classes”, the inhibition constant (Ki) is ≤ 0.1 µM.

Consider `C=CCNC(=O)C(=O)C(CCC(F)(F)F)NC(=O)[C@@H]1[C@@H]2[C@H](CN1C(=O)[C@@H](NC(=O)[C@@H](NC(=O)c1cnccn1)C1CCCCC1)C(C)(C)C)C2(C)C` (some centres unmarked) [Entry 33], for which the inhibition constant (Ki) (Table 2, range classes) is ≤ 0.1 µM.

As to `C=CCNC(=O)C(=O)C(CC1CC1)NC(=O)[C@@H]1[C@@H]2[C@H](CN1C(=O)[C@@H](NC(=O)[C@@H](NC(=O)c1cnccn1)C1CCCCC1)C(C)(C)C)C2(C)C` (some centres unmarked) [Entry 34], under “Table 2, range classes”, the inhibition constant Ki was ≤ 0.1 µM.

Take `CCC[C@H](NC(=O)[C@@H]1[C@@H]2[C@H](CN1C(=O)[C@@H](NC(=O)[C@@H](NC(=O)c1ccccn1)C1CCCCC1)C(C)(C)C)C2(C)C)C(=O)C(=O)NC1CC1` [Entry 35]: the Ki (Table 2, range classes) is ≤ 0.1 µM.

Take `C=CCNC(=O)C(=O)[C@H](CCC)NC(=O)[C@@H]1[C@@H]2[C@H](CN1C(=O)[C@@H](NC(=O)[C@@H](NC(=O)c1ccccn1)C1CCCCC1)C(C)(C)C)C2(C)C` [Entry 36]: for the setting “Table 2, range classes”, the Ki was ≤ 0.1 µM.

Consider `C=CCNC(=O)C(=O)C(CCCC)NC(=O)[C@@H]1[C@@H]2[C@H](CN1C(=O)[C@@H](NC(=O)[C@@H](NC(=O)c1ccccn1)C1CCCCC1)C(C)(C)C)C2(C)C` (some centres unmarked) [Entry 37], for which the inhibition constant Ki (Table 2, range classes) is ≤ 0.1 µM.

With `CCC[C@H](NC(=O)[C@@H]1[C@@H]2[C@H](CN1C(=O)[C@@H](NC(=O)[C@@H](NC(=O)OC(C)(C)C)C1CCCCC1)C(C)(C)C)C2(C)C)C(=O)C(=O)NC1CC1` [Entry 38], the Ki (Table 2, range classes) is 0.1 to 1 µM.

For `CCC[C@H](NC(=O)[C@@H]1[C@@H]2[C@H](CN1C(=O)[C@@H](NC(=O)[C@@H](NC(=O)C(C)(C)C)C1CCCCC1)C(C)(C)C)C2(C)C)C(=O)C(=O)NC1CC1` [Entry 39], where the note is “Table 2, range classes”, the Ki was ≤ 0.1 µM.

As to `C=CCNC(=O)C(=O)C(CC1CC1)NC(=O)[C@@H]1[C@@H]2[C@H](CN1C(=O)[C@@H](NC(=O)[C@@H](NC(=O)c1cnccn1)C1CCCCC1)C1Cc3ccccc3C1)C2(C)C` (some centres unmarked) [Entry 40], the Ki (Table 2, range classes) was ≤ 0.1 µM.

For `C=CCNC(=O)C(=O)C(CCC)NC(=O)[C@@H]1[C@@H]2[C@H](CN1C(=O)[C@@H](NC(=O)[C@@H](NC(=O)c1cnccn1)C1CCCCC1)C1Cc3ccccc3C1)C2(C)C` (some centres unmarked) [Entry 41], the Ki (Table 2, range classes) was ≤ 0.1 µM.

For `CCC[C@H](NC(=O)[C@@H]1[C@@H]2[C@H](CN1C(=O)[C@@H](NC(=O)[C@@H](NC(=O)c1cccnc1)C1CCCCC1)C(C)(C)C)C2(C)C)C(=O)C(=O)NC1CC1` [Entry 42], where the note is “Table 2, range classes”, the inhibition constant (Ki) was ≤ 0.1 µM.

For the molecule `CCCCC(NC(=O)[C@@H]1[C@@H]2[C@H](CN1C(=O)[C@@H](NC(=O)[C@@H](NC(=O)c1cnccn1)C1CCCCC1)C(C)(C)C)C2(C)C)C(=O)C(=O)NC1CC1` (some centres unmarked) [Entry 43], under “Table 2, range classes”, the inhibition constant (Ki) was ≤ 0.1 µM.

With `CCC[C@H](NC(=O)[C@@H]1[C@@H]2[C@H](CN1C(=O)[C@@H](NC(=O)[C@@H](NC(=O)c1cnccn1)C1(C)CCCCC1)C(C)(C)C)C2(C)C)C(=O)C(=O)NC1CC1` [Entry 44], the inhibition constant Ki (Table 2, range classes) was ≤ 0.1 µM.

With `C#CCCC(NC(=O)[C@@H]1[C@@H]2[C@H](CN1C(=O)[C@@H](NC(=O)[C@@H](NC(=O)c1cnccn1)C1(C)CCCCC1)C(C)(C)C)C2(C)C)C(=O)C(=O)NCC=C` (some centres unmarked) [Entry 45], the Ki (Table 2, range classes) was ≤ 0.1 µM.

For `C=CCNC(=O)C(=O)C(CCCC)NC(=O)[C@@H]1[C@@H]2[C@H](CN1C(=O)[C@@H](NC(=O)[C@@H](NC(=O)c1cnccn1)C1(C)CCCCC1)C(C)(C)C)C2(C)C` (some centres unmarked) [Entry 46], the Ki (Table 2, range classes) is ≤ 0.1 µM.

For `C=CCNC(=O)C(=O)C(CCC)NC(=O)[C@@H]1[C@@H]2[C@H](CN1C(=O)[C@@H](NC(=O)[C@@H](NC(=O)c1cnccn1)C1(C)CCCCC1)C(C)(C)C)C2(C)C` (some centres unmarked) [Entry 47], the Ki (Table 2, range classes) is ≤ 0.1 µM.

With `C=CCNC(=O)C(=O)C(CCC)NC(=O)[C@@H]1[C@@H]2[C@H](CN1C(=O)[C@@H](NC(=O)[C@@H](NC(=O)c1cnccn1)C1(C)CCCCC1)C1(C)CCCCC1)C2(C)C` (some centres unmarked) [Entry 49], the inhibition constant Ki (Table 2, range classes) was ≤ 0.1 µM.

With `C#CCCC(NC(=O)[C@@H]1[C@@H]2[C@H](CN1C(=O)[C@@H](NC(=O)[C@@H](NC(=O)c1cnccn1)C1(C)CCCCC1)C1(C)CCCCC1)C2(C)C)C(=O)C(=O)NCC=C` (some centres unmarked) [Entry 50], the Ki (Table 2, range classes) is ≤ 0.1 µM.

For `CCCC(NC(=O)[C@@H]1[C@@H]2[C@H](CN1C(=O)[C@@H](NC(=O)[C@@H](NC(=O)c1cnccn1)C1(C)CCCCC1)C1(C)CCCCC1)C2(C)C)C(=O)C(=O)NC1CC1` (some centres unmarked) [Entry 51], the Ki (Table 2, range classes) was ≤ 0.1 µM.

Values taken from US7485625B2, “Inhibitors of hepatitis C virus NS3/NS4a serine protease” (Schering Corporation, priority 2003, dated 2009).
